Target: T1, Peroxisome proliferator-activated receptor alpha (Homo sapiens, UniProt Q07869)
T1 sequence (Q07869 whole entry): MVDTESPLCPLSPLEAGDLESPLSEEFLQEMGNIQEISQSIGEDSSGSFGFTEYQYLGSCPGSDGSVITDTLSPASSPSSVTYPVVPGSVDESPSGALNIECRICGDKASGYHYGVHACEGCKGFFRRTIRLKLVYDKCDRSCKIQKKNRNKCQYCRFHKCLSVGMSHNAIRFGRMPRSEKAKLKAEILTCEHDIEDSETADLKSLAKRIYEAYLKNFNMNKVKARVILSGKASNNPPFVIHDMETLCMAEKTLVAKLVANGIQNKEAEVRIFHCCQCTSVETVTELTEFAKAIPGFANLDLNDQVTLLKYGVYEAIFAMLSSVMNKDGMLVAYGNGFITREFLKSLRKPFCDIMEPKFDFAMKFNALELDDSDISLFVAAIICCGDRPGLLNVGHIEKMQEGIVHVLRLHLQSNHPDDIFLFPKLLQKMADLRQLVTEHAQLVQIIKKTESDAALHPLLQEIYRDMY
Assay: Displacement of tritium labeled ligand from human PPARalpha by SPA assay

Compound: Cc1oc(-c2ccccc2)nc1CCOc1ccc(C[C@H](Nc2ccccc2C(=O)c2ccccc2)C(=O)O)cc1 [FARGLITAZAR]
- EC50: 345 nM
- IC50: 1220 nM

— ChEMBL document CHEMBL1146163 (Bioorg Med Chem Lett, 2006)
